GIV-Gai inh: inhibitors of GIV GBA-motif binding to rat Galpha-i3. actives 0.42% (n = 210,000). Galpha-i3/FITC-GIV peptide fluorescence polarization, 90 min; active compounds read low; scaled: aluminum fluoride 0%, vehicle 100%. AID 1224905. percent of control (FP), % (no concentration beside the values). P08753;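 active means replicate mean at 85% of control or lower, very high polarization wells dropped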;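 further: wells of about 15 µL received 100 nL stock; the first replicate is given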
* marks the source's active call; other numbers are inactive results. The sample as a whole holds a higher share of hits than the screen did.

GIV-Gai inh	Structure
106	Cc1nn(-c2nc3ccccc3n2C)c2c1C(c1ccccc1Cl)CC(=O)N2 (stereo unspecified)
106	CCc1c(C)c2ccc(O)c(CN(C)C)c2oc1=O
-6.9*	CC[C@@]1(O)C(=O)OCc2c1cc1n(c2=O)Cc2cc3c(CN(C)C)c(O)ccc3nc2-1
106	CCCCc1cc(=O)oc2c(CN(C)C)c(O)ccc12
105	Cc1ccc(Cl)cc1NC(=O)NCc1ccnc(N2CCCCC2)c1
98	COc1cccc(C(=O)Cn2c(=O)n(CCCS(=O)(=O)C3CCCCC3)c(=O)c3ccccc32)c1
102	CC(=O)C1=NN(c2ccccc2)C2(S1)c1ccccc1C(c1ccc(C(C)(C)C)cc1)=NN2c1ccccc1 (stereo unspecified)
103	CC1=C(C(=O)OCc2ccccc2)C(c2ccccc2)C(C#N)=C(N)O1 (stereo unspecified)
-1.1*	CC(=O)OCc1c(C)ccc(C2C(C#N)=C(N)OC(N)=C2C#N)c1C
101	CCOC(=O)C1=C(C)OC(N)=C(C#N)C1c1ccc(O)cc1 (stereo unspecified)
102	Cc1ccc(C(=O)OC2=C(c3ccccc3)C(=O)c3ccccc3C2=O)cc1
99	Cc1ccc(/C(N)=N/OC(=O)c2ccccc2)cc1
84*	Cc1ccc(C(=O)OC2=CC(=O)c3ccccc3C2=O)cc1
99	CCOC(=O)c1c(C)[nH]c(C)c1S(=O)(=O)NCCc1ccccc1
222	CCOc1cccc(N2C(=O)/C(=C\c3ccc(N(CC)CC)cc3OC)C(=O)NC2=S)c1
-18*	CCN(CC)c1ccc(C=C2C(=O)c3ccccc3C2=O)c(OC)c1
107	CCN(CC)c1ccc2nc3c(nc2c1)C(=O)c1ccccc1C3=O
99	Cc1sc(-c2nnc(C(=O)N3CCCC3)o2)cc1S(=O)(=O)N1CCOCC1
102	Cc1cccc(SCc2cc(=O)n3oc(C)cc3n2)c1
99	Cc1cc2nc(COc3ccccc3)cc(=O)n2o1
75*	Cc1cc2nc(CN3CCCc4ccccc43)cc(=O)n2o1
104	Cc1cc(C)nc(NC(=O)Nc2ccc(Cl)cc2)n1
99	c1ccc(-c2nc3ccccc3nc2-c2ccccc2)cc1
116	Cc1nc2nc(-c3ccccc3)c(-c3ccccc3)n2nc1C
-31*	c1ccc(-c2nc3nc(-c4ccccc4)c(-c4ccccc4)n3nc2-c2ccccc2)cc1
121	Cc1cccc(-n2ncc3c(N4CCN(c5ccc(F)cc5)CC4)ncnc32)c1
104	CCc1ccc(-c2csc3nc4ccccc4n23)cc1
99	CN(C(=O)C1CCN(c2ccc(-c3cccc(F)c3)nn2)CC1)C1CCCCC1
-75*	CCNc1nc2ccccn2c(=O)c1/C=C1\SC(=S)N(Cc2ccco2)C1=O
109	O=C1/C(=C/c2c(NCc3ccco3)nc3ccccn3c2=O)SC(=S)N1C1CCCCC1
293	CCN1C(=O)/C(=C/c2c(NC(C)C)nc3ccccn3c2=O)SC1=S
-83*	C=CCN1C(=O)/C(=C/c2c(NCc3ccco3)nc3ccccn3c2=O)SC1=S
104	C=CCN1C(=O)/C(=C\c2ccccc2)SC1=S
139	COc1ccc(CCN2C(=O)/C(=C/c3c(NCc4ccccc4)nc4ccccn4c3=O)SC2=S)cc1OC
135	COCCN1C(=O)/C(=C/c2c(N(C)C)nc3ccccn3c2=O)SC1=S
-33*	C=CCN1C(=O)/C(=C/c2c(NCC)nc3ccccn3c2=O)SC1=S
99	Cc1nc2nc(-c3ccc(C(C)(C)C)cc3)nn2c(C)c1CC(=O)Nc1ccc(Br)cc1
105	COC(=O)c1cc2occc2n1CC(=O)Nc1ccccc1OC
98	COc1ccc2[nH]c(=O)c(CN(Cc3ccco3)C(=S)NCc3ccco3)cc2c1
221	CCCN1C/C(=C\c2ccc(N(C)C)cc2)C(=O)/C(=C/c2ccc(N(C)C)cc2)C1
111	CSc1ccc(/C=C2\CC/C(=C\C(C)C)C2=O)cc1
-69*	COc1cccc2c1CC/C(=C\c1ccc(N(C)C)cc1)C2=O
113	COc1ccccc1/C=C1\CC/C(=C\c2ccccc2OC)C1=O
106	COc1ccc(/C=C2\CC/C(=C\c3ccc(C)cc3)C2=O)cc1
-74*	CC(C)C/C=C1\CC/C(=C\c2ccc(N(C)C)cc2)C1=O
98	COC(=O)/C=C/C1=C(N)c2ccccc2C1(C#N)c1ccccc1 (stereo unspecified)
102	CCOc1cc2c(c([N+](=O)[O-])c1)NC(c1cccc(Cl)c1Cl)C1CC=CC21 (stereo unspecified)
104	CC(C)N(C)C1CCN(C(=S)Nc2ccccc2Cl)CC1
111	O=Nc1c(O)n2c3c(cccc13)CCC2
100	CCn1c(=O)n(-c2ccccc2)c(=O)c2c1c1cc(C)ccc1n2C
-32*	CC[n+]1c(/C=C/C=C2\N(C)c3ccccc3C2(C)C)n(-c2ccccc2)c2ccc(C)cc21
258	CN1/C(=C/C=C/C=C/C=[N+](C)c2ccccc2)C(C)(C)c2ccccc21

Ordered by value in GIV-Gai inh (largest number first): five from the list above
GIV-Gai inh	Structure
258	CN1/C(=C/C=C/C=C/C=[N+](C)c2ccccc2)C(C)(C)c2ccccc21
111	O=Nc1c(O)n2c3c(cccc13)CCC2
100	CCn1c(=O)n(-c2ccccc2)c(=O)c2c1c1cc(C)ccc1n2C
98	COC(=O)/C=C/C1=C(N)c2ccccc2C1(C#N)c1ccccc1 (stereo unspecified)
-32*	CC[n+]1c(/C=C/C=C2\N(C)c3ccccc3C2(C)C)n(-c2ccccc2)c2ccc(C)cc21

Bioassay records: PubChem, ICCB-Longwood Screening Facility, Harvard Medical School
